Target: Glutamate receptor 3 (Rattus norvegicus, UniProt P19492)

Chains of the proteins cited; added tags and fusions are not shown. Lines headed by an entry give the natural chain unless they say otherwise; changes in a name come on top.
UniProt P19492: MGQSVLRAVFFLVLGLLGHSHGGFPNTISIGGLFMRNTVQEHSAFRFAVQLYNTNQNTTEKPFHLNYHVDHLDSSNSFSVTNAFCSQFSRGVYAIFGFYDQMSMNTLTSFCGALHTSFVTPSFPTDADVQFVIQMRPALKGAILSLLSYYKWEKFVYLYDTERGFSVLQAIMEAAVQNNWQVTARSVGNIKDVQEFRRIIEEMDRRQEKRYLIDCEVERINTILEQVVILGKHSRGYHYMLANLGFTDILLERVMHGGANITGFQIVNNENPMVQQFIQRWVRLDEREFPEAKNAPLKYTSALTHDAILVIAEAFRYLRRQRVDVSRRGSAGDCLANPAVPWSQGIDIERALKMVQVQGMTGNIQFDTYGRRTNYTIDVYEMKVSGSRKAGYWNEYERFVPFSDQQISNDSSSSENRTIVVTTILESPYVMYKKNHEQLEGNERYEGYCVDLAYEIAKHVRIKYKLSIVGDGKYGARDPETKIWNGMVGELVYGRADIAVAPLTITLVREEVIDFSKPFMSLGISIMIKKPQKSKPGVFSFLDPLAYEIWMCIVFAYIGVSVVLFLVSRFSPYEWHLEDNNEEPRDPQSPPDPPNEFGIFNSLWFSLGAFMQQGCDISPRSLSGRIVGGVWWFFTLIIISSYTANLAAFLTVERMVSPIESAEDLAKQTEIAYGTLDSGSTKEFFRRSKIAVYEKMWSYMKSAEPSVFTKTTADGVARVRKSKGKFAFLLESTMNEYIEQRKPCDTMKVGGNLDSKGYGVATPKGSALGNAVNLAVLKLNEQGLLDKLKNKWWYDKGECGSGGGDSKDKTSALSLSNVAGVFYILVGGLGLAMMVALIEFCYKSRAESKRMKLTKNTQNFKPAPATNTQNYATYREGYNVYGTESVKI

| Structure (SMILES) | Ki [nM] |
| --- | --- |
| Cc1onc(O)c1C[C@H](N)C(=O)O [glutamate-AMPA] | 14 |
| Cc1onc(O)c1CC(N)C(=O)O (stereo not drawn) [(RS)-2-amino-3-(3-hydroxy-5-methylisoxazol-4-yl)-propionicacid] | 17 |

Reference: BindingDB's records for PubMed 9536032 (Sibia Neurosciences, 1998)
